From patent US5112992A, “Production of polycarboxylic acids with hafnium-activated cobalt catalyst” (Amoco Corporation, priority 1991, dated 1992)

Test: Solubility of hafnium and zirconium tetrabromides in acetic acid-water mixtures in presence of trimellitic acid
Settings: 0.0012M tetrabromide in 20% water-acetic acid at reflux, trimellitic acid 0.71M added

Appearance of solution after adding trimellitic acid: precipitation occurred
Compound: [Br][Zr]([Br])([Br])[Br] [zirconium tetrabromide, reference compound]
